The record followed here is US20180280542A1, “PORTABLE BIOLU[…] AND METHODS FOR IN VIVO MONITORING OF MOLECULAR AND METABOLIC EVENTS IN ANIMALS” (Ecole Polytechnique Fédérale de Lausanne (EPFL), priority 2017, published 2018).

Chains of the proteins cited; added tags and fusions are not shown. Lines headed by an entry give the natural chain unless they say otherwise; changes in a name come on top.
UniProt P28843: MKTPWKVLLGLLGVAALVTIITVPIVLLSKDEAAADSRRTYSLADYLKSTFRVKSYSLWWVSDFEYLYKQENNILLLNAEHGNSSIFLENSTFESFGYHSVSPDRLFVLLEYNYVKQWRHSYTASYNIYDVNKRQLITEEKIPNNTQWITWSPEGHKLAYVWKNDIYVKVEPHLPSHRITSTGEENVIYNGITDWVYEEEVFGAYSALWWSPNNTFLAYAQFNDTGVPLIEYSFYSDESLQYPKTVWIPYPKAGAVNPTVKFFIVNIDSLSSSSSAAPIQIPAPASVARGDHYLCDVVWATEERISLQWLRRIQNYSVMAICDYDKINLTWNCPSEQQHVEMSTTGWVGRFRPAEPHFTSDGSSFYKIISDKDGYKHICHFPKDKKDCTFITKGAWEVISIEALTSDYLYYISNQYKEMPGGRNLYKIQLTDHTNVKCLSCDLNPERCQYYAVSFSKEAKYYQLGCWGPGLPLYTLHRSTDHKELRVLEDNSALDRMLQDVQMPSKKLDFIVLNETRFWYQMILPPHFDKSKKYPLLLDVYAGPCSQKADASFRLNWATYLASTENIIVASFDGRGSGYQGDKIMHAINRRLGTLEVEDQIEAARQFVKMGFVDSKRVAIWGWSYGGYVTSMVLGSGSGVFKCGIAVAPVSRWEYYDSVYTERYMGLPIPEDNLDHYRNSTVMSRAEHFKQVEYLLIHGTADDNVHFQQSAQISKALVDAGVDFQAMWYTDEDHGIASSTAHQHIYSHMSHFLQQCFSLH

Read-outs that look alike come from different tables or passages of the source.

This experiment concerns the target dipeptidyl peptidase-4 (DPP4) (Mus musculus, UniProt P28843). The note with it: wild type nude mice with luciferase matrigel plug, DPP4 caged luciferin probe.

Consider `N[C@@H](CC(=O)N1CCn2c(nnc2C(F)(F)F)C1)Cc1cc(F)c(F)cc1F` [sitagliptin], for which the “bioluminescent signal from inhibitor treated animals as compared to animals treated with PBS (times lower)” value is reported as “approximately 10 times” (signal recorded with IVIS system (FIG. 6A)) and “approximately 10 times” (signal recorded with portable sensor microsystem (FIG. 6B)).
